Measurements: US20240239804A1, “FUROINDAZOLE DERIVATIVES AS ANTAGONISTS OR INHIBITORS OF GPR84” (Bayer Aktiengesellschaft, priority 2021, published 2024)

Sequences of proteins named here, by UniProt entry; tags and fusion partners are left off.
UniProt Q9NQS5, whole entry: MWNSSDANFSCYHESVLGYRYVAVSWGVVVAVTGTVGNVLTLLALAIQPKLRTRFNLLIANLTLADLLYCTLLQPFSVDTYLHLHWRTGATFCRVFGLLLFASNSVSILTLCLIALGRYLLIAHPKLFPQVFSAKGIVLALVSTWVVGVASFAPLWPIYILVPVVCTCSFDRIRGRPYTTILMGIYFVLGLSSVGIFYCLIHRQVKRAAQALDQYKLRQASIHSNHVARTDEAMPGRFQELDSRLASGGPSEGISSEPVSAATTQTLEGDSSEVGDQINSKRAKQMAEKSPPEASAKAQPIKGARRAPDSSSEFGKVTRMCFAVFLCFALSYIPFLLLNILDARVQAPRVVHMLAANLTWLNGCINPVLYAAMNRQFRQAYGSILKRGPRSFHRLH

target: human GPR84 receptor (Homo sapiens, UniProt Q9NQS5); experiment: cAMP HTRF assay for identification of cellular GPR84 antagonists; details: read-out: GPR84 IC50; CHO-K1 cells stably expressing human GPR84; Forskolin plus agonist 6-OAU; cAMP HTRF readout; average or median values
From the text: cAMP HTRF® Assay for Identification of Cellular GPR84 Antagonists
By using a Homogenous Time-Resolved Fluorescence (HTRF®) based assay (#62AM5PEJ, Cisbio, Condolet, France) the inhibition of the Gi-coupled GPR84 receptor can be detected. CHO-K1 cells stably expressing human GPR84 receptor (purchased from DiscoveRx, now Eurofins) were used and treated with Forskolin (F6886, Sigma, Germany) to stimulate membrane adenylyl cyclases and thereby unspecific cAMP formation. Activation of the Gi-coupled GPR84 by a natural or small molecule agonist (e.g. 6-n-octyl aminouracile, inhouse) results in inhibition of cellular cAMP formation which can be released again by antagonists to this receptor. Detection and quantification of cellular cAMP levels in this HTRF assay is achieved by interaction between a fluorescent cAMP tracer (cAMP-d2) and an Eu-cryptate labelled anti-cAMP antibody. Following excitation at 337 nm this pairing allows for the generation of a fluorescence resonance energy transfer (FRET) between the partners and results in FRET induced emissions at 665 nm and 620 nm, the latter representing background signal by Eu-cryptate labelled anti-cAMP antibody. Maximal signal is obtained in the absence of any cellular cAMP (no competition for the binding of the tracer to the antibody). Given the combination of the Gi coupling properties of GPR84 and the competitive nature of the detection system agonist treatment should result in an increase in the HTRF signal due to lowered cAMP levels. Any signal decrease in the presence of Forskolin, agonist and compound are indicative of antagonist mediated abrogation of GPR84 signalling.
For the assay, frozen aliquots of CHO-K1 cells expressing hGPR84 (prepared by acCELLerate, Hamburg, Germany) were thawed and a cell suspension (1.67E+06 cells/mL) in assay media (Ham's F12 Nutrient Mix, Thermo Fisher Scientific, Waltham, USA; 5% fetal calf serum, Biomol, Hamburg, Germany) containing cAMP-d2 (dilution 1:20, supplied with the kit #62AM5PEJ, Cisbio, Condolet, France) was prepared. After recovery of cells for 20 minutes at 37° C., 3 μL/well cell suspension including cAMP-d2 were added to a pre-dispensed assay plate (Greiner Bio-One, Kremsmuenster, Austria) containing 50 nl/well test compound in 100% DMSO or 100% DMSO as control. This was followed by a 30 minute incubation step at room temperature. The stimulation time was started by addition of 2 μL/well assay media containing 2.5×EC80 agonist 6-OAU and 2.5×EC90 Forskolin (negative control: 2.5×EC90 Forskolin in assay media) and was continued for 30 minutes at room temperature. The reaction was stopped by addition of 3 μL/well lysis buffer containing cAMP Eu-Cryptate antibody (dilution 1:20) (both supplied with the kit #62AM5PEJ, Cisbio, Condolet, France). To enable complete lysis, plates were incubated for 60 minutes at room temperature before measurement in an HTRF reader, e.g. a PHERAstar (BMG Labtech, Ortenberg, Germany).
From the fluorescence emissions at 665 nm (FRET) and at 620 nm (background signal of Eu-cryptate) the ratio (emission at 665 nm divided by emission at 620 nm×10000) was calculated and the data were normalized (reaction without test compound, only 100% DMSO=0% inhibition; all other assay components except agonist=100% inhibition). […]

Row | SMILES | IC50 [nM]
1 | Cc1ccc(CNC(=O)c2oc3c(c2C)-c2nn(Cc4cccc(Cl)c4)cc2CC3)cc1 | 100
2 | Cc1c(C(=O)NCC2CCCO2)oc2c1-c1nn(Cc3ccccc3Cl)cc1CC2 (single isomer, unassigned) [Example 9-2] | 60
3 | Cc1c(C(=O)NCC2CCCO2)oc2c1-c1nn(Cc3ccc(F)cc3Cl)cc1CC2 (single isomer, unassigned) [Example 92-1] | 120
4 | Cc1c(C(=O)NCC2CCCO2)oc2c1-c1nn(Cc3ccc(F)cc3Cl)cc1CC2 (single isomer, unassigned) [Example 92-2] | 340
5 | Cc1c(C(=O)NCC2CCCO2)oc2c1-c1nn(Cc3ccccc3Cl)cc1CC2 (single isomer, unassigned) [Example 9-1] | 15
